Reference: PubChem BioAssay AID602276 (University of Pittsburgh Molecular Library Screening Center, 2012)
The entries are a selection whose mix differs from that of the whole data set. Some tests of the compounds listed are not included; inactive here does not mean inactive elsewhere. Calls of active or inactive are those of the source.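 The calls were made as follows: active = inhibition at or above 50% at 10 µM; inactive = inhibition below 50%.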

Test: inhibitors of Sendai virus-induced IRF3 signaling, primary screen, TLR/RLR signaling modifier project, cell-based, Sendai virus stimulus, luciferase, 10K MLSCN set (AID 602276);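 also: firefly luciferase from ISG56 promoter only with Renilla not read in this screen; 0% = Sendai virus plus DMSO and 100% = medium plus DMSO without virus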
Settings: HEK293 RL24 IRF3 luciferase reporter, at 10 µM, stronger effect = higher value

Row | Structure (SMILES) | inhibition
1 | O=C(OC1CN2CCC1CC2)C(CO)(c1ccccc1)c1ccccc1 (stereo unspecified) | inactive: 11.4%
